Apparent affinities of Ab-14 variants for a coronavirus HR2 peptide

Data: MIT Lincoln Laboratory AlphaSeq set, Li et al. 2023, doi:10.1038/s41467-023-39022-2, as distributed in FLAb.

Target: peptide PDVDLGDISGINAS, taken from heptad repeat 2 (HR2) of SARS-CoV-2 spike.

The variants keep the heavy chain, the linker and the frameworks of Ab-14 (scFv order VH, the linker GGGGSGGGGSGGGGS, VL).
VH: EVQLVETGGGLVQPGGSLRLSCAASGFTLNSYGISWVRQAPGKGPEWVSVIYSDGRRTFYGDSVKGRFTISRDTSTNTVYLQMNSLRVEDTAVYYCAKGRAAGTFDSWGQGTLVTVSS
VL: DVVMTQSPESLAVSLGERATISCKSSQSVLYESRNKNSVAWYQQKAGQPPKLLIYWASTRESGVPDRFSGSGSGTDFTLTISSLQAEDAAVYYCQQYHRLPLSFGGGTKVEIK

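This is the validation round: designs drawn from the data on random variants, tested in the same kind of assay. Several design methods are mixed in this list. The assay is AlphaSeq: two haploid yeast populations carry antibody and antigen on their surface. The frequency of each diploid, read from paired DNA barcodes, reflects how well the two displayed proteins bind. The ratio of observed to expected reads was calibrated, replicate by replicate, on BCL2-family standards whose Kd was known from biolayer interferometry. Mating was done six times.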

The parent's light chain CDRs are KSSQSVLYESRNKNSVA, WASTRES, QQYHRLPLS; each variant's own CDRs replace them letter for letter. Variants here have more than six changes. The read-out is the apparent dissociation constant on a log10 scale (nM): the lower, the stronger. The mean shown is taken over the replicates in which the pair was detected. An entry "nd" has no value in the source: the pair was not observed among the diploids in any replicate. This suggests poor binding but is not conclusive. Background: pairings of all light chain designs with three empty control strains gave a value in 4% of cases (median 2.64, 5th percentile 1.59). Values in that range, when seen in few replicates, are hard to tell from nonspecific mating. The range of this assay differs from that of the first round, and the authors advise against merging the two. The parent sequence was in this pool as ten entries: three were never detected, three once, and four in most replicates, with averages from 0.34 to 2.37. In the paper, a design with two or fewer of six values counts as a poor binder.

CDR-L1,CDR-L2,CDR-L3,"log10 Kd (nM), mean",seen in
MISDLTMQGSRNKNSVA,DLSTRGS,QQYHRLPLS,0.34,6 of 6
MLSMVTEGMVRKHDSVA,DNSTRES,QQYDRLPLS,0.77,6 of 6
SLHMYTLTEKNANNSIA,EKSYRAY,QQYSHLPLV,1.32,6 of 6
SISGFMKSLSAHINSVA,DMTNRES,QQYERLPLS,0.49,6 of 6
QLAVERGQEYKAGAAIA,GNTEKLH,QQYAMLPLS,1.45,6 of 6
MISDLTYLGLRNVNSVA,DLEMRGN,QQYDRLPLS,1.48,5 of 6
KLSITGLHQSIDKKSIA,ERSTREN,QQYHRLPLS,0.35,6 of 6
KLSMSYRYETENKNSIA,ELVTRMS,QQYHRLPLS,1.41,6 of 6
KISMLINQTFQTENNVA,EMVTREK,QQYHRLPLS,1.87,5 of 6
TIGMFMDNLMQNRNNVA,DTSTLGN,QSYDRLPLS,1.47,6 of 6
KSSQSVMGEDGNKNSVA,HASVRES,QQYHRLPLM,0.64,6 of 6
RISAHVYDETNTQENVA,QEHIRAN,QQYSRLPLS,0.28,6 of 6
KVQQSWLYESRNSNNVA,NASKRES,QQYHRLPLS,0.12,6 of 6
NLGQKMALITEQRNQIA,DSTVRED,QQYSRLPLI,0.81,6 of 6
KLPQKYNYESRNKNNVA,SASCRES,QQYHRLPLS,0.35,6 of 6
KMTEQLLNGEREPSSIA,AGVIGSD,QQYHQLPLI,2.96,5 of 6
ILSQMLLTAGNKHNSVA,QANNREE,QQYHRLPLS,1.07,6 of 6
NVGQLMDGASRNKNSVA,HQSTRED,QHYHRLPLS,1.48,6 of 6
ASSPSVMGEERNSNSVA,AASTREV,QQYHRLPLS,0.02,6 of 6
KLDQSVMLWSRNKNSVA,EASTRMS,QDYHRLPLS,0.28,6 of 6
TISQMLLMQTSHKNSVA,GEETRYN,QQYHHLPLS,1.08,6 of 6
KFEHMDLYESRNKNSVA,SASQRSS,QQYHRLPLS,-0.37,6 of 6
MVSQLMLWGLHAKNSIA,EAVTRYN,QQYDRLPLF,2.10,6 of 6
HFSQVTMYGSWMKNSVA,QTSTREE,QQYDRLPLS,0.02,6 of 6
TIGQMFNGETRNRNSVA,QASTRES,QSYDRLPLS,1.11,6 of 6
MISQSFLIGSRMKNSVA,QTSTRES,QQYDRLPLS,0.54,6 of 6
MLYGLSMSMSKNKNNVA,EMTTREK,QQYDRLPLV,0.74,6 of 6
KFSQSNLYEDRNQNNVA,NASQREQ,QDYHRLPLS,-0.17,6 of 6
MLLQATMVGERQRNSVA,HASTRED,QQYHRLPLI,0.53,6 of 6
SLGLVTMLEYAERNNVA,NNSTREE,QQYDRLPLS,1.64,6 of 6
TISQMTSQFSQTINNVA,EVSTREK,QQYDRLPLA,0.90,6 of 6
MFDQQTMNEMDKNNAVA,EVTHLVN,QQYAQLPLI,1.78,5 of 6
QLEWLEINGQSVGNSIA,ANVQEQE,QQYFRLPLT,1.76,3 of 6
KLSQQHLMESRNKNSVA,NASLRLS,QCYHRLPLS,0.52,6 of 6
FLAYALDQTGLQKNNIA,QVNLLEN,QQYERLPLA,1.91,6 of 6
KIGQTLNQLMHQKNNVA,DLVTREN,QQYHRLPLS,0.29,6 of 6
QIMEEQSMRTEGNWNIA,QAEQKVH,QQYNRLPLA,0.63,6 of 6
KLSQSNGYESRMFNSVA,NASQRES,QQYHRLPLS,0.43,6 of 6
QLYAVQDMTSKNQNSVA,EQSTREN,QQYHRLPLS,0.24,6 of 6
KVDQEWHYGSRNKNSVA,NASQRES,QQYHRLPLS,0.56,6 of 6
KIHQSELYEDRNINSVA,SASQRSS,QQYHRLPLS,0.30,6 of 6
RLRNDWQGWIGNGASIA,DANMYAK,QQYQRLPLA,0.37,6 of 6
KLSMITGHMSVQKNNVA,EMETREN,QQYDRLPLS,0.59,6 of 6
KLSQDVCYGDRNKNSVA,NASTREQ,QQYHRLPLS,-0.42,6 of 6
MLSEVLHMLGVQKNAIA,DLVLRAN,QQYHRLPLM,nd,0 of 6
MLSDLNKMGVRQTQSVA,DNSTRGE,QQYDRLPLS,1.62,6 of 6
HISYSMQHLSKNKNSVA,NQQTREQ,QQYHRLPLS,1.61,2 of 6
MLSQMWALGMKVKNSVA,QANMRFN,QQYDRLPLI,1.81,3 of 6
KIQDNLGTLMEQINSVA,ASEEIVD,QSYFRLPLI,1.57,5 of 6
KVSEFMRGLMKMKDSIA,DNETRPN,QQYDRLPLS,2.08,6 of 6
KLYEMLAVTMSHIRNVA,DNSTREA,QQYNRLPLS,nd,0 of 6
KLSGSVCMLSRADNSVA,DASTRES,QQYHRLPLS,0.59,6 of 6
KQQGGQDYSSRMDNSVA,DASTRES,QQYHRLPLS,nd,0 of 6
KVYQGINGHYSAHNSIA,QEETRVD,QQYAHLPLS,0.63,6 of 6
KLRQQTLYETRNKNSVA,QASTREE,QQYHRLPLS,2.21,2 of 6
TIGQMLMQGIRNRSNVA,EVSQRLN,QQYDRLPLM,1.68,6 of 6
KLMQEQEYQSRMKNSVA,HASERLS,QQYHRLPLS,0.32,6 of 6
KSSQSWLGMDGNKNSVA,QASQRMS,QQYHRLPLS,0.08,6 of 6
KLSQWVEMESRWKNSVA,SASQRNE,QQYHRLPLS,0.48,6 of 6
KLSQSNKYESRMKNSVA,NASQREL,QQYHRLPLS,0.22,6 of 6
KVPMSHLYESRNMNSVA,NASERES,QQYHRLPLS,0.16,6 of 6
MFPQEVMYEQHFKNNVA,QTSTREN,QQYDMLPLS,0.53,6 of 6
KVSGFMRGLMMRKDSIA,DNETRSN,QQYDRLPLS,2.51,1 of 6
QISQLMNLSMHGTNNVA,QMETRVK,QQYDRLPLS,1.24,6 of 6
KLSQVTEYESRNKNNVA,DLTTRGS,QDYHRLPLS,-0.56,6 of 6
KLGDMVHTESRNKNSIA,DMRTREN,QQYYRLPLS,-0.22,6 of 6
KLASVTGTEKVRGNNVA,EMETRES,QQYNRLPLS,0.28,6 of 6
KVVKAKSEGDRHAANVA,NANKASD,QQYYRLPLA,0.07,6 of 6
RFTEHLLMLESKIYNIA,NATKTME,QQYFRLPFV,0.92,6 of 6
MFEGYNSEGEANNNNVA,DHNCGER,QQYYRLPLA,0.59,6 of 6

8 of these entries, quoted again:

| CDR-L1 | CDR-L2 | CDR-L3 | log10 Kd (nM), mean | seen in |
|---|---|---|---|---|
| MLSMVTEGMVRKHDSVA | DNSTRES | QQYDRLPLS | 0.77 | 6 of 6 |
| KLASVTGTEKVRGNNVA | EMETRES | QQYNRLPLS | 0.28 | 6 of 6 |
| KVDQEWHYGSRNKNSVA | NASQRES | QQYHRLPLS | 0.56 | 6 of 6 |
| MVSQLMLWGLHAKNSIA | EAVTRYN | QQYDRLPLF | 2.10 | 6 of 6 |
| KFSQSNLYEDRNQNNVA | NASQREQ | QDYHRLPLS | -0.17 | 6 of 6 |
| QISQLMNLSMHGTNNVA | QMETRVK | QQYDRLPLS | 1.24 | 6 of 6 |
| KVVKAKSEGDRHAANVA | NANKASD | QQYYRLPLA | 0.07 | 6 of 6 |
| KVYQGINGHYSAHNSIA | QEETRVD | QQYAHLPLS | 0.63 | 6 of 6 |